# US4485113A (priority 1979, dated 1984)
# System: rat
# Assay: peroral toxicity to mammals (A.O. Rat)
# Details: for A.O. Rat. LD50: comparison test, Table III; for A.O. Rat. (peroral LD50): Table II
SMILES,A.O. Rat. LD50,A.O. Rat. (peroral LD50)
CC(=NOC(=O)N(C)SC(C)(CCl)CCl)SC(C)C,174 mg/kg,174 mg/kg
CSC(C)(C)C=NOC(=O)N(C)SC(C)(CCl)CCl,,2.5 mg/kg
CN(SC(C)(C)CCl)C(=O)ON=C1CSCCS1,,24. mg/kg
CN(SC(C)(CCl)CCl)C(=O)ON=C1SC(C)(C)C(=O)N1C,,343 mg/kg
CN(SC(C)(CCl)CCl)C(=O)ON=C1CSCCS1,,43 mg/kg
CN(SC(C)(C#N)CCl)C(=O)ON=C1CSCCS1 (stereo not drawn),,40 mg/kg
CSC(C)=NOC(=O)N(C)SC(C)(C)CCl,104 mg/kg,104 mg/kg
